Results taken from patent publication US6683078B2, “Use of sulfonyl aryl or heteroaryl hydroxamic acids and derivatives thereof as aggrecanase inhibitors” (priority 2001, dated 2004).

Biological target: T1, Recombinant human MMP-2 (Homo sapiens, UniProt P08253)
T1 construct: made in house
T1 sequence (P08253 110-660): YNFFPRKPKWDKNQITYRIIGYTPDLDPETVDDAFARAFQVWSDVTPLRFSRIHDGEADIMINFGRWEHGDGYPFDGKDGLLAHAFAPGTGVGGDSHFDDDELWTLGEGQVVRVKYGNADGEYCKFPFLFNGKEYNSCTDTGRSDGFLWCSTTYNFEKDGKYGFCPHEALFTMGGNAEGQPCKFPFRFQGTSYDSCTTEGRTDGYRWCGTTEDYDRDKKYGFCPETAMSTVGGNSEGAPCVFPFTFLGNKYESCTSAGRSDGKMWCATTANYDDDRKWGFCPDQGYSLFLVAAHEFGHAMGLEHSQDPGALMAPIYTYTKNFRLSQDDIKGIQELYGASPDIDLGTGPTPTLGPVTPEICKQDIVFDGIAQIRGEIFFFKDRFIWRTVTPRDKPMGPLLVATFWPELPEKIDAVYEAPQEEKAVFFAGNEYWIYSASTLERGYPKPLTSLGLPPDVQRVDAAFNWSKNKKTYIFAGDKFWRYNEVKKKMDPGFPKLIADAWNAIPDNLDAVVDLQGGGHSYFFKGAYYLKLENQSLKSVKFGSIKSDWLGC
Assay: In vitro MMP inhibition, fluorogenic peptide substrate
Format: biochemical
Settings: Inhibition Table A

O=C(NO)c1ccccc1S(=O)(=O)N1CCC(Oc2ccc(C(F)(F)F)cc2)CC1 [Example 13, N-hydroxy-2-[[4-[4-(trifluoromethyl)phenoxy]-1-piperidinyl]sulfonyl]benzamide]
IC50: 1.3 nM
